Reference: patent publication US9132134B2, “Methods for treating GI tract disorders” (Neurogastrx, Inc., priority 2012, dated 2015)

By UniProt entry, the sequences of proteins in these tests, tags left out.
UniProt P14416, whole entry, species assumed: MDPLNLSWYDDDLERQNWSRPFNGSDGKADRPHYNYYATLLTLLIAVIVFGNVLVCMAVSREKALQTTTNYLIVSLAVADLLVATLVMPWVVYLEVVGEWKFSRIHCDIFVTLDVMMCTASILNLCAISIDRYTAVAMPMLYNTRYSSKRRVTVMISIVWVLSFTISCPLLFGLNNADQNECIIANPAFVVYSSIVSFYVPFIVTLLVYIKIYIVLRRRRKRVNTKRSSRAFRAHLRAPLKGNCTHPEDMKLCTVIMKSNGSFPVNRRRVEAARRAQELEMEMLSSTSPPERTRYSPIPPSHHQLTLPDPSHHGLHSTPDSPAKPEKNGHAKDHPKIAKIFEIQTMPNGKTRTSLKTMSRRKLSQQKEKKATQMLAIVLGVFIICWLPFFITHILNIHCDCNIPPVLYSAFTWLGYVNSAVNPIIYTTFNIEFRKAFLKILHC

Molecular target: dopamine D2 receptor (Homo sapiens (Human), UniProt P14416)
Assay: Radioligand binding assay, [3H]spiperone, membranes of D2 receptor expressing cells
Details: [3H]spiperone competition; read-out: Radioligand Binding Affinity (Ki, nM) D2

Ki: 14 nM
Structure (SMILES): CS(=O)(=O)c1ccc2c(c1)N(CCCN1CCC(C(=O)O)CC1)c1ccccc1S2 [Metopimazine acid]
